# Results: PubChem BioAssay AID489030 (Sanford-Burnham Center for Chemical Genomics, 2010)
# The chains behind the UniProt entries cited, without tags or fusion partners.
# UniProt O14727, whole entry: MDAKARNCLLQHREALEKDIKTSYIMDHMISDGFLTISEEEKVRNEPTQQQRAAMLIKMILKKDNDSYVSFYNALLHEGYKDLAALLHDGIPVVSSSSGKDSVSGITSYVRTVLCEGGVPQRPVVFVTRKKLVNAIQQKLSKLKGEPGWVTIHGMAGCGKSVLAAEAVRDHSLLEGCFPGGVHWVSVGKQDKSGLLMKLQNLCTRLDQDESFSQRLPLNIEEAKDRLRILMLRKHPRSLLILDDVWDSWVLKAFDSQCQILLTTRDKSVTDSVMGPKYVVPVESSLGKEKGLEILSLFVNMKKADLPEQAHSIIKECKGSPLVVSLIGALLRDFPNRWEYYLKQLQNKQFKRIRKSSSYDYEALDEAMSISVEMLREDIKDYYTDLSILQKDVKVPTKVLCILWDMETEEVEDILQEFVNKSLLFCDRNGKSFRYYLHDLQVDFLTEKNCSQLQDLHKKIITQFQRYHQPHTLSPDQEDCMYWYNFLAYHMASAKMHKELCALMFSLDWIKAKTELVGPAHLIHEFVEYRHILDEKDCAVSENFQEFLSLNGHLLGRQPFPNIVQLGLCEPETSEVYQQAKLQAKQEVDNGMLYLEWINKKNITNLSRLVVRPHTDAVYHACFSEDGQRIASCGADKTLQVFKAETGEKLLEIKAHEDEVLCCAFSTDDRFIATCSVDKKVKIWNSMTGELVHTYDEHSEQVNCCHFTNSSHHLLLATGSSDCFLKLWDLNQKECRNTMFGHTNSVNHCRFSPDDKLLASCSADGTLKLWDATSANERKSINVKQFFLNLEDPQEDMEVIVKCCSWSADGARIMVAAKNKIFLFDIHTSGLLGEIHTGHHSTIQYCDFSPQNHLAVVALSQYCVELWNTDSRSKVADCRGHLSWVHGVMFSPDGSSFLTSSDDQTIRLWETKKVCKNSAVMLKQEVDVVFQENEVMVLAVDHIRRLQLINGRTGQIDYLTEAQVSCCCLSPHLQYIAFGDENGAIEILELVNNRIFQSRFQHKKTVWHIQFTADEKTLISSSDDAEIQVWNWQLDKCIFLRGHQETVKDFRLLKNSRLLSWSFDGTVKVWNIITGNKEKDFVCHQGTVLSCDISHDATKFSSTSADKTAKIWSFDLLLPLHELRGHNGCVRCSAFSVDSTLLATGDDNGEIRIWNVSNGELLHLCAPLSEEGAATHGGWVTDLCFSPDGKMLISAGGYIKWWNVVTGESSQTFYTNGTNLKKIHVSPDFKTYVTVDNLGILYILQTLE
# The list shows a part of the results, in another mix than the full data. Activity calls are given as the source filed them. The calls were made as follows: active = inhibition of at least 40% at 20 µM; inactive = the rest.
# Target: Apoptotic protease-activating factor 1 (Homo sapiens) (UniProt O14727)
# Experiment: inhibitors of human Apaf-1 apoptosome, primary screen, biochemical, DEVD-Rh110 fluorescence, uHTS (AID 489030);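 also: plate controls were DMSO wells for no effect and DEVD-CHO caspase inhibitor wells for full effect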
# Conditions: reconstituted apoptosome caspase-3 activity, at 20 µM, hits give high values
row,Structure (SMILES),inhibition
1,CCC(=O)N(c1ccccc1)C1(COC)CCN(CCn2nnn(CC)c2=O)CC1,inactive: 3.16%
2,CCC(=O)N(c1ccccc1)C1(COC)CCN(CCc2cccs2)CC1,inactive: 11.6%
